Measurements reported in PubChem BioAssay AID2599 (Sanford-Burnham Center for Chemical Genomics, 2010).
Only a part is listed here, and it is no random draw. The source made the active and inactive calls.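 The calls were made as follows: active = inhibition above about 50% at the single tested dose (limit read from the data); inactive = the rest.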

The chains behind the UniProt entries cited, without tags or fusion partners. Residues count along the entry.
UniProt Q9GZR1, 628-1112 limits assumed: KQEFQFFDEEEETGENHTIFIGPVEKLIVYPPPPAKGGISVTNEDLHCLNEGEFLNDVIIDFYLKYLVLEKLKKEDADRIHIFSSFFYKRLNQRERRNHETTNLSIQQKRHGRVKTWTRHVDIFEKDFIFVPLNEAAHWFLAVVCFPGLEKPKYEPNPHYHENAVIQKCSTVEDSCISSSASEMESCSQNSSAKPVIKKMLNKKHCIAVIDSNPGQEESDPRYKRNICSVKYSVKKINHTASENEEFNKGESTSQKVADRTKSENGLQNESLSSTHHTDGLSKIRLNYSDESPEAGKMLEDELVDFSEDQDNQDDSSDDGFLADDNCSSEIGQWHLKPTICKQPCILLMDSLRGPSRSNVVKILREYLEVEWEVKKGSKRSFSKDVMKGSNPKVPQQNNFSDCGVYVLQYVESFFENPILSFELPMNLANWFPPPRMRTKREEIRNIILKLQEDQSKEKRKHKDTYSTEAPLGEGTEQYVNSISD

The molecules below were run against Sentrin-specific protease 6 (Homo sapiens) (UniProt Q9GZR1) (assay: inhibition of human SENP6 catalytic domain – biochemical, luminescence, uHTS, primary screen (AID 2599;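 also: plate controls were DMSO wells with enzyme for no effect and DMSO wells lacking enzyme for full effect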)). Conditions: Recombinant SENP6 catalytic domain, aminoluciferin luminescence; at 10 µM; stronger effect = higher value.

| SMILES | inhibition |
| --- | --- |
| CCC(=O)N(c1ccccc1)C1(COC)CCN(CCn2nnn(CC)c2=O)CC1 | inactive: -8.56% |
| CCC(=O)N(c1ccccc1)C1(COC)CCN(CCc2cccs2)CC1 | inactive: -10.9% |
